The experiment deals with T1, ecNOS (Bos taurus, UniProt P29473).
T1 construct: the intimal surface of fresh bovine aortae was scraped and homogenized; from tissue; host or cells: homogenate of intimal scrapings of fresh bovine aortae
Nature of the experiment: ecNOS activity from intimal scrapings of fresh bovine aortae (conversion of [3H]-L-arginine to [3H]-L-citrulline). It is filed as biochemical. How it is done:
The intimal surface of fresh bovine aortae was scraped in the presence of homogenation buffer composed of 50 mM Tris-HCl, 0.1 mM ethylenediamine tetraacetic acid (EDTA) and 0.1 mM ethyleneglycol bis (beta-aminoethyl ether) (EGTA). Conversion of [^3 H]-L-arginine to [^3 H]-L-citrulline was measured in the homogenates as follows: cell homogenate (50 μl) was incubated in the presence of [^3 H]-L-arginine (10 μM, 5 kBq/tube), NADPH (2 mM), calmodulin (30 nM), tetrahydrobiopterin (5 μM) and calcium (2 mM) for 20 minutes at 37° C. in N-2-hydroxethyl piperazine-N-2-ethane sulfonic acid (HEPES) buffer (pH 7.5). Reactions were stopped by dilution with 1 ml of ice cold HEPES buffer (pH 5.5) containing EGTA (2 mM) and EDTA (2 mM). Reaction mixtures were applied to Dowex 50W (Na^+ form) columns and the eluted [^3 H]-L-citrulline activity was measured by scintillation counting. bNOS activity was measured using similar methods in homogenates of whole rat brains.
For a preparation rich in ecNOS, the intimal surface of fresh bovine aortae was scraped and homogenized. The homogenization buffer was composed of 50 mM tris-HCL, 0.1 mM EDTA, 0.1 mM EGTA and 1 mM phenylmethylsulfonyl chloride (pH 7.4). […] Conversion of [^3 H]-L-arginine to [^3 H]-L-citrulline was measured in the homogenates as described in Example 3 above.

SMILES strings stand for the structures.

Here are results for 1 compound from patent US5929063A, “Mercapto and seleno derivatives as inhibitors of nitric oxide synthase” (priority 1995, dated 1999).

What is called EC50 is the midpoint of the concentration-response curve.

On to `CNC(=N)NCCC[C@H](N)C(=O)O` [L-NMA, N^G -Methyl-L-arginine, reference compound], for which the EC50 turned out to be 5 µM.
